Source: US10189836B2, “Therapeutic compounds, compositions and methods of use thereof” (Genentech, Inc., priority 2015, dated 2019)

The molecules below were run on JAK1-dependent STAT6 phosphorylation downstream of IL-13 stimulation in BEAS-2B cells (assay: JAK1 pathway assay in BEAS-2B cells (IL-13-pSTAT6)). Conditions: Homo sapiens, read-out: IL13-pSTAT6 BEAS2B IC50.

In order of rising IC50:
1. CN1CCN(C(=O)Cn2cc(Nc3nc4c(N5CC6CCC(C5)N6S(=O)(=O)CC#N)cccn4n3)cn2)CC1 [Example 183, 2-[[3-[2-[[1-[2-(4-methylpiperazin-1-yl)-2-oxo-ethyl]pyrazol-4-yl]amino]-[1,2,4]triazolo[1,5-a]pyridin-8-yl]-3,8-diazabicyclo[3.2.1]octan-8-yl]sulfonyl]acetonitrile]  81.5 nM
2. CN1CCN(C(=O)Cn2cc(Nc3nc4c(C5=CC6CCC(C5)N6C(=O)OCC(F)(F)F)cccn4n3)cn2)CC1 (stereo not drawn) [Example 7, 2,2,2-trifluoroethyl 3-[2-[[1-[2-(4-methylpiperazin-1-yl)-2-oxo-ethyl]pyrazol-4-yl]amino]-[1,2,4]triazolo[1,5-a]pyridin-8-yl]-8-azabicyclo[3.2.1]oct-3-ene-8-carboxylate]  181 nM

The molecules below were run on JAK1-dependent STAT6 phosphorylation downstream of IL-13 stimulation in BEAS-2B cells (assay: not given). Conditions: not given.

In order of falling IC50:
1. CN1CCN(C(=O)Cn2cc(Nc3nc4c(N5CC6CCC(C5)N6S(=O)(=O)Cc5ccccc5C(F)(F)F)cccn4n3)cn2)CC1 [Example 167, 1-(4-methylpiperazin-1-yl)-2-[4-[[8-[8-([2-(trifluoromethyl)phenyl]methylsulfonyl]-3,8-diazabicyclo[3.2.1]octan-3-yl]-[1,2,4]triazolo[1,5-a]pyridin-2-yl]amino]pyrazol-1-yl]ethanone]  172 nM
2. CN1CCN(C(=O)Cn2cc(Nc3nc4c(N5CC6CCC(C5)N6C(=O)c5cccc(C#N)c5)cccn4n3)cn2)CC1 [Example 199, 3-[3-[2-[[1-[2-(4-methylpiperazin-1-yl)-2-oxo-ethyl]pyrazol-4-yl]amino]-[1,2,4]triazolo[1,5-a]pyridin-8-yl]-3,8-diazabicyclo[3.2.1]octane-8-carbonyl]benzonitrile]  91.4 nM
3. O=C(Cn1cc(Nc2nc3c(N4CC5CCC(C4)N5C(=O)N4CC(C(F)(F)F)C4)cccn3n2)cn1)N1CCN(C2CCOCC2)CC1 [Example 39, 1-(4-tetrahydropyran-4-ylpiperazin-1-yl)-2-[4-[[8-[8-[3-(trifluoromethyl)azetidine-1-carbonyl]-3,8-diazabicyclo[3.2.1]octan-3-yl]-[1,2,4]triazolo[1,5-a]pyridin-2-yl]amino]pyrazol-1-yl]ethanone]  81.5 nM
4. CN1CCN(C(=O)Cn2cc(Nc3nc4c(N5CC6CCC(C5)N6S(=O)(=O)C5CCCCC5)cccn4n3)cn2)CC1 [Example 178, 2-[4-[[8-(8-cyclohexylsulfonyl-3,8-diazabicyclo[3.2.1]octan-3-yl)-[1,2,4]triazolo[1,5-a]pyridin-2-yl]amino]pyrazol-1-yl]-1-(4-methylpiperazin-1-yl)ethanone; formic acid]  67.9 nM
5. CN1CCN(C(=O)Cn2cc(Nc3nc4c(N5CC6CCC(C5)N6CC5(C#N)CC5)cccn4n3)cn2)CC1 [Example 21, 1-[[3-[2-[[1-[2-(4-methylpiperazin-1-yl)-2-oxo-ethyl]pyrazol-4-yl]amino]-[1,2,4]triazolo[1,5-a]pyridin-8-yl]-3,8-diazabicyclo[3.2.1]octan-8-yl]methyl] cyclopropanecarbonitrile]  52.3 nM
6. CN1CCN(C(=O)Cn2cc(Nc3nc4c(N5CC6CCC(C5)N6S(=O)(=O)c5ccc(Cl)cc5F)cccn4n3)cn2)CC1 [Example 136, 2-[4-[[8-[8-(4-chloro-2-fluoro-phenyl)sulfonyl-3,8-diazabicyclo[3.2.1]octan-3-yl]-[1,2,4]triazolo[1,5-a]pyridin-2-yl]amino]pyrazol-1-yl]-1-(4-methylpiperazin-1-yl)ethanone]  37 nM
7. CSC1CCN(C(=O)N2C3CCC2CN(c2cccn4nc(Nc5cnn(CC(=O)N6CCN(C)CC6)c5)nc24)C3)C1 (stereo not drawn) [Example 172, 1-(4-methylpiperazin-1-yl)-2-[4-[[8-[8-(3-methylsulfanylpyrrolidine-1-carbonyl)-3,8-diazabicyclo[3.2.1]octan-3-yl]-[1,2,4]triazolo[1,5-a]pyridin-2-yl]amino]pyrazol-1-yl]ethanone]  25.8 nM
